Test results from US20210228731A1, “ANTIBODY DRUG CONJUGATES FOR ABLATING HEMATOPOIETIC STEM CELLS” (NOVARTIS AG, priority 2018, published 2021).

Tested on: human HSCs in humanized NSG mice
Experiment: In vivo ablation of human HSCs from mouse host
Conditions: 10 mg/kg twice per day for 2 days intraperitoneally, bone marrow analyzed day 21
Protocol: To assess test agents for in vivo efficacy against human HSCs, severely immune compromised NOD.Cg-Prkdc^scid IL2^tm1wjl/SzJ mice that are humanized with human CD34+ cells were purchased from Jackson Laboratory. Percent human chimerism was determined by flow cytometry of blood samples. […] Cell populations were assessed via flow cytometry and analyzed with FlowJo.
In one particular experiment, mice were dosed with 10 mg/kg of anti-cKIT conjugate J26, J29, or J30, or isotype control conjugate J31 twice per day for 2 days. Mice were euthanized on day 21 and their bone marrow was analyzed.

## J31 [Conjugate J31, reference compound]
  human HSCs (human CD45+, human CD34+, human CD38-) in bone marrow: showed variable chimerism
